pIC50: −log10 of the molar value.
Biological target: T1, full-length gelatinase B (Homo sapiens, UniProt P14780)
T1 construct: full-length gelatinase B (FLGB) hydrolysis of thiopeptolide
Assay: full-length gelatinase B hydrolysis of thiopeptolide (FLGB)
Type: biochemical
Settings: thiopeptolide substrate
Source text: The invention compounds have been evaluated in standard in vitro assays and shown to be potent inhibitors of several matrix metalloproteinase enzymes. Specifically, the compounds have been evaluated for their ability to inhibit gelatinase A-catalyzed hydrolysis of thiopeptolide and gelatin, and the stromelysin-catalyzed hydrolysis of thiopeptolide.
The compounds were additionally evaluated for their ability to inhibit full-length collagenase hydrolysis of thiopeptolide substrate (FLC) and full-length gelatinase B (FLGB) hydrolysis of thiopeptolide.

By UniProt entry, the sequences of proteins in these tests, tags left out. Residues count along the entry.
UniProt P14780, 94-707, species assumed: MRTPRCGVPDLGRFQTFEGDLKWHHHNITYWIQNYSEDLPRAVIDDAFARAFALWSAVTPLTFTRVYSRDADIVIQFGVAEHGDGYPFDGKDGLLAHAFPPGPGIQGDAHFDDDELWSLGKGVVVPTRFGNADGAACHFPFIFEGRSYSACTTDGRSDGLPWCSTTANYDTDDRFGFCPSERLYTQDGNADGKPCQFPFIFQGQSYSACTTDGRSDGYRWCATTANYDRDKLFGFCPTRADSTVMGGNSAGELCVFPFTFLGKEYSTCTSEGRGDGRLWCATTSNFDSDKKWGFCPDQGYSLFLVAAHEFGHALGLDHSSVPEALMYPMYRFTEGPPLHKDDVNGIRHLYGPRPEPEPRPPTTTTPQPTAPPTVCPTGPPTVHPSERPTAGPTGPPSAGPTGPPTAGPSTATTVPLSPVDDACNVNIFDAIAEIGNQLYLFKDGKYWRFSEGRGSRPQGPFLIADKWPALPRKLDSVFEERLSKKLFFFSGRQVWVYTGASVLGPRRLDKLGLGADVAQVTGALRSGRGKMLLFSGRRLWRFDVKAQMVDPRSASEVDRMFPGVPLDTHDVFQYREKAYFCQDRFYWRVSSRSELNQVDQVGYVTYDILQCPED

pIC50: 4.52
Compound: CC(C)[C@H](NS(=O)(=O)c1ccc(-c2cccc(Br)c2)cc1)C(=O)O [Example 7, (S)-2-(3'-Bromo-biphenyl-4-sulfonylamino)-3-methyl-butyric acid]

Reference: patent EP0901466B1, “BIPHENYLSULFONAMIDE MATRIX METALLOPROTEINASE INHIBITORS” (WARNER-LAMBERT COMPANY, priority 1996, dated 1997)
